Results as given in patent US20260015582A1, “METHODS OF T CELL DIFFERENTIATION AND COMPOSITIONS THEREOF” (THE CHILDREN'S MEDICAL CENTER CORPORATION, priority 2022, published 2026).
Entries after “also recorded” stand apart in the source; their conditions may differ.

System: CD34+ HE cells
Assay: Stroma-free T cell differentiation with or without IL-3 in the first differentiation medium
Assay type: cell-based, human
Settings: IL-3 during first week
Method: 24 well non-tissue culture treated plates were coated with 10 μg/ml recombinant human DL4-Fc protein (Life Technologies, A42510) and 2 μg/ml VCAM-1 (Shukla et al., 2017) (R&D, 862VC100) in PBS for 2 hours at 4° C. CD34+ HE cells (1×10^5 cells/well) were then seeded on DL4-coated plates and cultured in SFEMII (StemCell Tech, 09605) media supplemented with 10% BIT serum substitute (StemCell Tech, 09500), 2 mM L-Glutamine (Gibco, 35050061), 1 mM sodium pyruvate (Gibco, 11360070), 50 μg/ml 2-phospho-L-ascorbic acid (Huijskens et al., 2014) (sigma, 49752), 55 μM 2-Mercaptoethanol (Gibco, 21985023), 1 mM None-essential amino acids (Gibco, 11140050), 1% penicillin-streptomycin (Corning, 30002CI), 30 ng/ml SCF, 20 ng/ml FLT3, 30 ng/ml IL-7, 5 ng/ml IL-3 (first week only), and 5 ng/ml TPO for 2 weeks to induced the differentiation into proT cells. For the production of EZ-T cells, EZH1 knockdown was performed via lentiviral transduction (MOI=5) after 24 hours of HE seeding. After 2 weeks of differentiation, SCF and TPO were withdrawn from the media, and the proT cells were replated into new DL4-coated plates and cultured in the presence of 20 ng/ml FLT3 and 15 ng/ml IL-7 till week 5, followed by 1 week of treatment with CD3/CD28 T activator (StemCell Tech, 10971) and 5 ng/ml IL-15 to induced SP T cells. During T cell differentiation, half media changes were conducted every 2-3 days. T cell differentiation using the OP9-DL1 co-culture system was conducted following previous reports (Holmes and Zúñiga-Pfücker, 2009) (Themeli et al., 2013). Briefly, day 8 CD34^+ HE cells were seeded on OP-DL1 stromal cells and co-cultured with OP9 media (α-MEME, 20% FBS, 1% penicillin-streptomycin, 1 mM None-essential amino acids, 2 mM L-Glutamine, 10 μM 2-Mercaptoethanol, 50 μg/ml 2-phospho-L-ascorbic acid) supplemented with 10 ng/ml SCF, 5 ng/ml FLT3, and 10 ng/ml IL-7. Cells were mechanically dissociated and filtered through 40 μm strainers to be seeded on new stromal cells every five days.

[1] = after 35 days, versus without IL-3

B1: IL-3: interleukin-3, cytokine added at 5 ng/ml (first week only) to the first differentiation medium (protein, UniProt P08700 20-152, looked up)
Interleukin-3: APMTQTTPLKTSWVNCSNMIDEIITHLKQPPLPLLDFNNLNGEDQDILMENNLRRPNLEAFNRAVKSLQNASAIESILKNLLPCLPLATAAPTRHPIHIKDGDWNEFRRKLTFYLKTLENAQAQQTTLSLAIF
cell proliferation (CD5+CD7+ T cell progenitors and CD33+ cells) (Day 14, effect not restricted to lymphoid cells): promoted cell proliferation
Yield of CD3+ cells per 1000 CD34+ HE cells [1]: increased; also recorded: modest increase
frequency of CD3+ cells [1]: slight reduction
